Experimental data from paper PMC5055294 (PLoS ONE, 2016).

What was measured:
CCRL2 [1] = details: ref [21],[22]; cited from earlier work
Excerpt: […]. CMKLR1 is coupled to the Gi/o family of G proteins and in cells ...

CCRL2 [2] = assay: Binding and competition, [^125I]-CCL19 tracer, CCRL2; set-up: species or system human; details: CHO-K1 cells expressing CCRL2, 0.1 nM [^125I]-CCL19

## CCL19: chemokine
CCRL2 [1]
  binding to CCRL2: reported to bind CCL19 in the absence of signaling

## CCL5: chemokine
CCRL2 [2]; excess unlabeled competitor (300nM), triplicates
  competition for binding of CCL19: did not competed for the binding of CCL19 to CCRL2

## radio-labelled CCL19: radio-labelled chemokine tracer [reference compound]
CCRL2 [2]
  specific binding of radio-labelled CCL19: relatively weak compared to chemerin binding
